Test results from patent publication US11104968B2, “Site-specific conjugation of linker drugs to antibodies and resulting ADCS” (Byondis B.V., priority 2014, dated 2021).

Tests used:
[1] = High molecular weight species (aggregates) of ADCs; assay type: physicochemical; settings: vc-seco-DUBA ADCs, amount of aggregates formed
LNCaP-C4.2 = test: Enzymatic cleavage by cathepsin B, cytotoxicity of released drug on LNCaP-C4.2 as 5T4-negative line; assay type: cell-based, human; settings: 4 hours pre-incubation with cathepsin B, LNCaP-C4.2 used as the 5T4-negative cell line
Procedure: The valine-citrulline moiety present in the linker of the ADCs with vc-seco-DUBA (SYD980) and vc-MMAE can be cleaved by cysteine proteases, such as cathepsin B, which results in subsequent intracellular release of the (seco-)DUBA or MMAE drug inside the tumour lysosomes or extracellular in the tumour microenvironment. To assess the sensitivity towards cathepsin B, the ADCs were treated for 2 minutes and 4 hours with activated cathepsin B (Calbiochem). The cytotoxic activity of the released drug from the anti-PSMA ADCs was measured on PSMA-negative DU-145 cells. The cytotoxic activity of the released drug from the anti-5T4 ADCs was measured on 5T4-negative SK-MEL-30 cells. During the pre-incubation step at 37° C., 1 mg/ml of each ADC was mixed with 5 μg/ml cathepsin B (0.04 units/well) in 0.1M Na-acetate pH 5 containing 4 mM DTT. As a control, 1 mg/ml of each ADC was directly diluted in culture medium (RPMI 1640, 10% qualified FBS). Serial dilutions were made from these ADC solutions in culture medium. To measure release of the respective free toxins DUBA or MMAE, PSMA-negative DU-145 cells (1,000 cells/well) and 5T4-negative SK-MEL-30 cells (2,000 cells/well) were cultured with the ADCs for 6 days, and the cell viability was measured after 6 days using the CellTiter-Glo™ (CTG) assay kit.

[2] = Analytical HIC, relative hydrophobicity of ADCs; assay type: physicochemical; settings: vc-seco-DUBA ADCs; (RTDAR2-RTDAR0)/(RTDAR2,wt-ADC-RTDAR0,wt-ADC); double mutants are DAR4 species (RT wt DAR4 = 12.2)
Procedure: For analytical HIC, 5-10 μL of sample (1 mg/ml) was injected onto a TSKgel Butyl-NPR column (4.6 mm ID×3.5 cm L, Tosoh Bioscience, cat. nr. 14947). The elution method consisted of a linear gradient from 100% Buffer A (25 mM sodium phosphate, 1.5 M ammonium sulphate, pH 6.95) to 100% of Buffer B (25 mM sodium phosphate, pH 6.95, 20% isopropanol) at 0.4 ml/min over 20 minutes. A Waters Acquity H-Class UPLC system equipped with PDA-detector and Empower software was used. Absorbance was measured at 214 nm and the retention time of ADCs was determined.
As made apparent by analytical HIC, there were differences in the retention times (RTs) for the DAR2 species of the different cysteine engineered ADCs versus the wt conjugates (Tables 1, 2 and 3). […] To further quantify this effect, the term relative hydrophobicity is introduced, which is defined as: (RTDAR2−RTDAR0)/(RTDAR2,wt-ADC−RTDAR0,wt-ADC). In essence, the relative hydrophobicity is a measure that allows a facile comparison between the hydrophobicity of the engineered ADCs versus the wt-conjugated counterparts based on HIC data.

B1: H8-wt: non-engineered anti-5T4 wt H8 antibody conjugated to vc-seco-DUBA (conjugate)
heavy: QVQLVQSGAEVKKPGASVKVSCKASGYSFTGYYMHWVKQSPGQGLEWIGRINPNNGVTLYNQKFKDRVTMTRDTSISTAYMELSRLRSDDTAVYYCARSTMITNYVMDYWGQGTLVTVSSASTKGPSVFPLAPSSKSTSGGTAALGCLVKDYFPEPVTVSWNSGALTSGVHTFPAVLQSSGLYSLSSVVTVPSSSLGTQTYICNVNHKPSNTKVDKKV[human IgG1 Fc not shown]
light: DIVMTQSPDSLAVSLGERATINCKASQSVSNDVAWYQQKPGQSPKLLISYTSSRYAGVPDRFSGSGSGTDFTLTISSLQAEDVAVYFCQQDYNSPPTFGGGTKLEIKRTVAAPSVFIFPPSDEQLKSGTASVVCLLNNFYPREAKVQWKVDNALQSGNSQESVTEQDSKDSTYSLSSTLTLSKADYEKHKVYACEVTHQGLSSPVTKSFNRGEC
[1]
  HMW (%): 4.4%
LNCaP-C4.2
  % efficacy, free drug cleaved by cathepsin B: 98%
LNCaP-C4.2; read-out: IC50 (nM), free drug cleaved by cathepsin B
  IC50: 0.35 nM
[2]
  Relative hydrophobicity: 1.0
